Laboratory results reported in ChEMBL document CHEMBL5325398, “Design of Cytochrome P450 1B1 Inhibitors via a Scaffold-Hopping Approach” (J Med Chem, 2023).

Amino acid sequences for entries named in this document (tags omitted). A change or cut given only in a name is not applied to a line headed by its entry.
UniProt P10632: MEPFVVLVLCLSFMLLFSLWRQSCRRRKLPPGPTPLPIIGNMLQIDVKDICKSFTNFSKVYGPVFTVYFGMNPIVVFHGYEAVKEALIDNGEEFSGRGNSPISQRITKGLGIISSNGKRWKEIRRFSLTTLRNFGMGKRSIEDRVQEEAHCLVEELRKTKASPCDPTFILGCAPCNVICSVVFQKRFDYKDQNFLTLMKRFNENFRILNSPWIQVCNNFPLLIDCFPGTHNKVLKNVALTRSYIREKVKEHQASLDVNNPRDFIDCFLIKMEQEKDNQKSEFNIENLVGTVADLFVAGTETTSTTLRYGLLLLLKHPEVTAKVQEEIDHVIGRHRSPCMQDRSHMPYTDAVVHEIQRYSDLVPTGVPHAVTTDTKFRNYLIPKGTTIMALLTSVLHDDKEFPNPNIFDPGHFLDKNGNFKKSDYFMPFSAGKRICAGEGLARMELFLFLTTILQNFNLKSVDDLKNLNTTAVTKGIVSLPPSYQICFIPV
UniProt P11509: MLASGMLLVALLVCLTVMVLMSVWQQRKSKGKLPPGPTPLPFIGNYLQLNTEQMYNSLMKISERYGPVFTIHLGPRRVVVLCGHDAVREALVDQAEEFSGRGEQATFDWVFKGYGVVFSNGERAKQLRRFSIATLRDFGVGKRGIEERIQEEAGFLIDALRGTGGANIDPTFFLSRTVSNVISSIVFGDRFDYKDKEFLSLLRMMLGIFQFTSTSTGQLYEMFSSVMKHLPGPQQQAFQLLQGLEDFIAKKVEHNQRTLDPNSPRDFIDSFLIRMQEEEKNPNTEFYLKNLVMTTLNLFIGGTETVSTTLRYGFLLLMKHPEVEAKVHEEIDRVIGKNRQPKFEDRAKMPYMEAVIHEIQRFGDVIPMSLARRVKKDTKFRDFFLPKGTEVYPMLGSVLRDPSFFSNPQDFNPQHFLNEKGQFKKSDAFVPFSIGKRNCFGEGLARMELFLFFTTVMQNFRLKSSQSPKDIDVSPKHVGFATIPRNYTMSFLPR
UniProt P13584: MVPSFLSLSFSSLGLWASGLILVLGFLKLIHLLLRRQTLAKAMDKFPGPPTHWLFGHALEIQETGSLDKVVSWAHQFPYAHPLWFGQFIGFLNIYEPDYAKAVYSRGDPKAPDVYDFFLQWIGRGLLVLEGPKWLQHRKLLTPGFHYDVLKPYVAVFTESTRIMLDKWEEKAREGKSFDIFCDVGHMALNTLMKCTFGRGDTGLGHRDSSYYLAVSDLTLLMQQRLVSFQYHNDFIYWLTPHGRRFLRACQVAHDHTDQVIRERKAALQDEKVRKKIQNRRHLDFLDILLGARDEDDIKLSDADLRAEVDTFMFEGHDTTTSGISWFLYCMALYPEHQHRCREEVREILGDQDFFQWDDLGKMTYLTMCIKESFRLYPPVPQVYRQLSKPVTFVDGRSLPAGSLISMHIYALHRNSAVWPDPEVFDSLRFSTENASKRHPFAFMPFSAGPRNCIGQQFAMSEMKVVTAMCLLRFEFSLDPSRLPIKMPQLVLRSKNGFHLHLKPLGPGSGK
UniProt P24903: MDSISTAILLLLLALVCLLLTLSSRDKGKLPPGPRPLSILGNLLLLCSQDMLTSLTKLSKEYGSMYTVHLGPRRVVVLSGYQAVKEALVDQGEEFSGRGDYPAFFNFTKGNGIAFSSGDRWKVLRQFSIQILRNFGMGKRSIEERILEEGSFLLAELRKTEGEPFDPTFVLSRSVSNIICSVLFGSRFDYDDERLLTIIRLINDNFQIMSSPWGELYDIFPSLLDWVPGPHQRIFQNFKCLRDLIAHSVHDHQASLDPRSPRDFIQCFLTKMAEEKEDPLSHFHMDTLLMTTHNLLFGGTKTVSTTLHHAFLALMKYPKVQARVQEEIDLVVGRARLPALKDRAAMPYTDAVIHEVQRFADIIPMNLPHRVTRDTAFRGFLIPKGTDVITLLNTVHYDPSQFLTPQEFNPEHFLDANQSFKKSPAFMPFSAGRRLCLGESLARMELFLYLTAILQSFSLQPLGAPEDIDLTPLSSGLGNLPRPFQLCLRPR
UniProt P33260: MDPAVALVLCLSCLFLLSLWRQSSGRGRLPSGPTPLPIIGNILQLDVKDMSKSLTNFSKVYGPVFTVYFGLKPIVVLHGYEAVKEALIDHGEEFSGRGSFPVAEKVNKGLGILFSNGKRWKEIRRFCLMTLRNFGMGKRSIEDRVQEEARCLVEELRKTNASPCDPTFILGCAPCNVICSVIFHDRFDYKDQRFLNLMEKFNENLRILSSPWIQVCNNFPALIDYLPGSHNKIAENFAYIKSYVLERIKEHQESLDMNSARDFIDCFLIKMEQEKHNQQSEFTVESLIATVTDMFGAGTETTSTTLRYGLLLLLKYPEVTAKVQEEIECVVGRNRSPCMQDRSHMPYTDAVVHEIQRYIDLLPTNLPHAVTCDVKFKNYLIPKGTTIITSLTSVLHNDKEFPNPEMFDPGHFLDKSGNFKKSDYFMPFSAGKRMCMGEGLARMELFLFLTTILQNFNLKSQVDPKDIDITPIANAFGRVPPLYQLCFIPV
UniProt P51589: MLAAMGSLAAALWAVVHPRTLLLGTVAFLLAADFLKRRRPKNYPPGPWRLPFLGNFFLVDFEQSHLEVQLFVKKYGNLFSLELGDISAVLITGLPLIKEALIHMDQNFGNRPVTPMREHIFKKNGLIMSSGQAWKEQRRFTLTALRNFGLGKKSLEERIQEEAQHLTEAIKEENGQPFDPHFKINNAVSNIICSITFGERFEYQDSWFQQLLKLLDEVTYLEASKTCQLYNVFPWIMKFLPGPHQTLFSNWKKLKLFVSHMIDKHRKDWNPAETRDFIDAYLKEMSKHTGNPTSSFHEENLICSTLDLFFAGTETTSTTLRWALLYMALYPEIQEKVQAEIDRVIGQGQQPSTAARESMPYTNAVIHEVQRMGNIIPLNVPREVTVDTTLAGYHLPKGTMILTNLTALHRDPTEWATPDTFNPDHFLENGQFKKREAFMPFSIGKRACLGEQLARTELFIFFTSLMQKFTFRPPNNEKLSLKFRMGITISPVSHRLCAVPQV
UniProt P98187: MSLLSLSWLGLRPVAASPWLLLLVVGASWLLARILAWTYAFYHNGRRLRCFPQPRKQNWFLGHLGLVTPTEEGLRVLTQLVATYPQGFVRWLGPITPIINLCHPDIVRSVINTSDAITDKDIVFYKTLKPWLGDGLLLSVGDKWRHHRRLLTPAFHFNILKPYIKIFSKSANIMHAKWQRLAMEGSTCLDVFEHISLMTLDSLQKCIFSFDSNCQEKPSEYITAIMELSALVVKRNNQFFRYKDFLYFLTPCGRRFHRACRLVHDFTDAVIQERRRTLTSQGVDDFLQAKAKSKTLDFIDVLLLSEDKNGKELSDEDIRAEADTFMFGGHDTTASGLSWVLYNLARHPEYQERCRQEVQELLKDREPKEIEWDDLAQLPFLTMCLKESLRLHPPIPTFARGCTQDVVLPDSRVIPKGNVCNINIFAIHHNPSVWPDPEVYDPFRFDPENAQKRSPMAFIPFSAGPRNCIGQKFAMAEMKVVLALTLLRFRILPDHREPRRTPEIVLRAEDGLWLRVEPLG
UniProt Q02928: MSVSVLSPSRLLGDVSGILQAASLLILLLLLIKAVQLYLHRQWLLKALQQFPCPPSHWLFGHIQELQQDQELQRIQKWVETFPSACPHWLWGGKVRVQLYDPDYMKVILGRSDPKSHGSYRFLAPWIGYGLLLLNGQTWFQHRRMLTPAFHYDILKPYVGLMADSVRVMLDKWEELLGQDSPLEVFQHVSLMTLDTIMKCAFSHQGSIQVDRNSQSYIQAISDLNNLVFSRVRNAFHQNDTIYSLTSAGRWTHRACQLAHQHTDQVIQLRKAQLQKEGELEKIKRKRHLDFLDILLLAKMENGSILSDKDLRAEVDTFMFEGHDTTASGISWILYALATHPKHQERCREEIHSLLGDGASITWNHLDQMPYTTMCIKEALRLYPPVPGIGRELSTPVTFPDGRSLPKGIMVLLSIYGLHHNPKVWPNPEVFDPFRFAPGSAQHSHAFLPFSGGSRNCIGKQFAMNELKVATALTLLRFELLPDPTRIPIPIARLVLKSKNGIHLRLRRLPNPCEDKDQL
UniProt Q08477: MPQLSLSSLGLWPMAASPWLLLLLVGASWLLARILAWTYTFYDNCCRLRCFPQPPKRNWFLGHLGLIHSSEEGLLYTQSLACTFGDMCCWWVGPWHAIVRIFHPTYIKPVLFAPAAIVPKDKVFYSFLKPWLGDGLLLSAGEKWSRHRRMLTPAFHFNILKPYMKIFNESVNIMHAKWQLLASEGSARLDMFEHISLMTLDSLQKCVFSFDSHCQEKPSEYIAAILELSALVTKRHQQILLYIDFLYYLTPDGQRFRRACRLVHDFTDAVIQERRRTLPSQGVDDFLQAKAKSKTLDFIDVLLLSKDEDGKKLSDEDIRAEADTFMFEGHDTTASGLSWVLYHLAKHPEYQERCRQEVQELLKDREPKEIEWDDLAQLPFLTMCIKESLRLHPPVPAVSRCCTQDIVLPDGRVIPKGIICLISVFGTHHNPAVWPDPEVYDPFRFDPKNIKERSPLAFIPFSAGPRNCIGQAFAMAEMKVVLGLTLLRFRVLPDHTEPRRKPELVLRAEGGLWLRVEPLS
UniProt Q5TCH4: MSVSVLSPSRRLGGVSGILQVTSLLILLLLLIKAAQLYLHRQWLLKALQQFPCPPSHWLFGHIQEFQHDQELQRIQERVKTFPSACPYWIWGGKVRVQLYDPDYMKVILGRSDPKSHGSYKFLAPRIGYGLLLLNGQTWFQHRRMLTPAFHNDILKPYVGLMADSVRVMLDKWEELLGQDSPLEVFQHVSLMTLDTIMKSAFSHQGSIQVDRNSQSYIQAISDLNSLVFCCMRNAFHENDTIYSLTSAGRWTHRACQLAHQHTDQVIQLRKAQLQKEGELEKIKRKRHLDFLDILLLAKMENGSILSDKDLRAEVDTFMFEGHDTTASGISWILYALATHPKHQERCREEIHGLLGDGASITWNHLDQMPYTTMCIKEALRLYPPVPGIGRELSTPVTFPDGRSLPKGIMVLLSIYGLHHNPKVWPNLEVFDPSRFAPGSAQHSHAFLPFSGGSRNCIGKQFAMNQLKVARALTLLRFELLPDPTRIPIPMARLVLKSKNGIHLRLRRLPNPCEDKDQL
UniProt Q6VVX0: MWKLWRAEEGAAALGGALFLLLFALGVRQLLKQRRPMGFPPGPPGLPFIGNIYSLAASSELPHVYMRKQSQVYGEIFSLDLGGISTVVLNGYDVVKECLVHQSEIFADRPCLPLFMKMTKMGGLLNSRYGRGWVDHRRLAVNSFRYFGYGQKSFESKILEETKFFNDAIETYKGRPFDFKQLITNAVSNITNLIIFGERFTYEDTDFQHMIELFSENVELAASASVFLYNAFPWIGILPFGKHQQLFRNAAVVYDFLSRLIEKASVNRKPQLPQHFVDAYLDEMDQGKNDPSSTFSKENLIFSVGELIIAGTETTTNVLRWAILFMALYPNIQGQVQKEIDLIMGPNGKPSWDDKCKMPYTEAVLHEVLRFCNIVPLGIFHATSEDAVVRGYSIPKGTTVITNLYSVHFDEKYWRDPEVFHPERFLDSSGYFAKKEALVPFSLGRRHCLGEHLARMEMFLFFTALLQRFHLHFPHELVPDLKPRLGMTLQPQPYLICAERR
UniProt Q8TAV3: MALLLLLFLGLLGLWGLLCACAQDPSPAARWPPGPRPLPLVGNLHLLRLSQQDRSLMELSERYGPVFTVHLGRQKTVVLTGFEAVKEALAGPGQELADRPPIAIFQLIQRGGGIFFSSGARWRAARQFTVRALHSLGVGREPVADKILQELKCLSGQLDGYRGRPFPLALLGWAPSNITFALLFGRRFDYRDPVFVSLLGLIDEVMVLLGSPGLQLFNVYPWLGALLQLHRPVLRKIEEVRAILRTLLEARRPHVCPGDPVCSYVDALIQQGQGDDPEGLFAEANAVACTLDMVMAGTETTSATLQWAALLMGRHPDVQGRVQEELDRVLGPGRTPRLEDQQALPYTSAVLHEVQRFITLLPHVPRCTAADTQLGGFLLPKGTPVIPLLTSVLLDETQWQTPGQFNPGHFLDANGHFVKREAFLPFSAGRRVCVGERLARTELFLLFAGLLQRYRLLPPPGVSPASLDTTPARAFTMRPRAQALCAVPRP
UniProt Q9HB55: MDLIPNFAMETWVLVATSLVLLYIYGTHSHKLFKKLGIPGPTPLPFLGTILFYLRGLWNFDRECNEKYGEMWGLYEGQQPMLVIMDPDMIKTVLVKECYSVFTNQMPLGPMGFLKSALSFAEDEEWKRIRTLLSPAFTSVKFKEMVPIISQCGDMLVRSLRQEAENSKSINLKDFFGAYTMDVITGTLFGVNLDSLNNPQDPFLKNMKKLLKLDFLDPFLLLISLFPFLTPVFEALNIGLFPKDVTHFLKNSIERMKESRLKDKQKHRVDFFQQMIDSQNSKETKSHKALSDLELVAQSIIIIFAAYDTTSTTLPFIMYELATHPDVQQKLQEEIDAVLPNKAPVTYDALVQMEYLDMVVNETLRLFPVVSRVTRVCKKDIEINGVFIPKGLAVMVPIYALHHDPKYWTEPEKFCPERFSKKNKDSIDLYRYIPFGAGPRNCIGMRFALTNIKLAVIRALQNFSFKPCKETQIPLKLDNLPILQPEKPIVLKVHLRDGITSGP

Columns and labels:
[1] = test system: CYP450 (liver microsomes) versus CYP1B1; assay: in vitro; settings: human, pooled liver microsomes (CYP450 arm)
Cytochrome P450 1B1 [2] = molecular target: T1, Cytochrome P450 1B1 (Homo sapiens, UniProt Q16678); assay: Inhibition of CYP1B1 (unknown origin) expressed in HEK293-T-REx cells co-expressing POR incubated for 1 hr by resorufin dye based plate reader analysis; type: ADME, cell-based
T1 sequence (Q16678 whole entry): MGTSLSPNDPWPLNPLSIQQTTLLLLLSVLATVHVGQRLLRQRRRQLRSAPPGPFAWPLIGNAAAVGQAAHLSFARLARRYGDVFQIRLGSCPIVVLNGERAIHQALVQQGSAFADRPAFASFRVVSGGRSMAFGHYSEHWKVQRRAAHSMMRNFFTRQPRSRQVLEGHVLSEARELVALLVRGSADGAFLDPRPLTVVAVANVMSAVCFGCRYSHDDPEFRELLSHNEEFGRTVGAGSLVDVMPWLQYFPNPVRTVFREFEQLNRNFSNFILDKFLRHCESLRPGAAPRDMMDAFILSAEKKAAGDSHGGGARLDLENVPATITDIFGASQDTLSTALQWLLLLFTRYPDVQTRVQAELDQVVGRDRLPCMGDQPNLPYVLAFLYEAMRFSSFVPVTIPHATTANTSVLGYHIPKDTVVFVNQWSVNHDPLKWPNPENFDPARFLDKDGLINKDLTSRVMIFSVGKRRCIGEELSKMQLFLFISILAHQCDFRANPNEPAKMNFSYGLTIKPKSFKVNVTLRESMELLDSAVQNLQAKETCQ

Cytochrome P450 1A1 = molecular target: T2, Cytochrome P450 1A1 (Homo sapiens, UniProt P04798); assay: Inhibition of CYP1A1 (unknown origin) expressed in HEK293-T-REx cells co-expressing POR incubated for 1 hr by resorufin dye based plate reader analysis; type: ADME, cell-based
T2 sequence (P04798 whole entry): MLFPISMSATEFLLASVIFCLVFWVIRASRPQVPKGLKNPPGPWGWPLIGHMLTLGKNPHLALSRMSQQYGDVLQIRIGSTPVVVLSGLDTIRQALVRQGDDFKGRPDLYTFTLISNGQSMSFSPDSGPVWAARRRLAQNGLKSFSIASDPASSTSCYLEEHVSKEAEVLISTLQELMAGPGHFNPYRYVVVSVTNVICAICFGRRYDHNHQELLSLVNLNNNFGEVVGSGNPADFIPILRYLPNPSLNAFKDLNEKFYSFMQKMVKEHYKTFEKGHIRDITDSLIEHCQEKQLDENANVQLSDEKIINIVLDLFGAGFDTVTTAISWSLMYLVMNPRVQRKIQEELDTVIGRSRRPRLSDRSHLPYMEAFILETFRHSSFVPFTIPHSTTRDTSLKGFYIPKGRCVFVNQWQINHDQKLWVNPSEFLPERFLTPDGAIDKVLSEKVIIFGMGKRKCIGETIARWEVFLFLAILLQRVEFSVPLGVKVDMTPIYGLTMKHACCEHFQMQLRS

in vitro [3] = settings: mouse, liver microsomes
in vitro [4] = settings: rat, liver microsomes
in vitro [5] = settings: mouse, liver microsomes; remark: listed apart in the source
in vitro [6] = settings: rat, liver
Cytochrome P450 1B1 [7] = molecular target: T1, Cytochrome P450 1B1
Cytochrome P450 3A4 = Cytochrome P450 3A4 (Homo sapiens, UniProt P08684)
Cytochrome P450 1A2 = Cytochrome P450 1A2 (Homo sapiens, UniProt P05177)
CYP450 (family) = CYP450 (family) (Homo sapiens, UniProt P04798+P05177+P05181+P08684+P10632+P10635+P11509+P11712+P13584+P20813+P20815+P20853+P24462+P24903+P33260+P33261+P51589+P78329+P98187+Q02928+Q08477+Q16678+Q16696+Q5TCH4+Q6VVX0+Q7Z449+Q8TAV3+Q96SQ9+Q9HB55); assay: in vitro; settings: pooled liver microsomes
[8] = Cytotoxicity against HEK293-T-REx cells assessed as reduction in cell viability measured after 72 hrs by resazurin dye based analysis; type: toxicity; settings: human
CYP1A2 versus CYP1B1 = assay: in vitro
CYP3A4 versus CYP1B1 = assay: in vitro

Row | SMILES | selectivity ratio [1] | IC50 (Cytochrome P450 1B1 [2]) [nM] | IC50 (Cytochrome P450 1A1) [nM] | Kd (Cytochrome P450 1B1 [7]) [nM] | IC50 (Cytochrome P450 3A4) [nM] | further results
1 | COc1cc(OC)cc(-c2cn(-c3cc(OC)cc(OC)c3)nn2)c1 | > 9.8 | 1020 | > 10000 |  |  | 
2 | COc1cc(/C=C/c2ccc(OC)cc2OC)cc(OC)c1 |  | 66 | 1500 | 630 |  | microsomal CLint at 100 µM (in vitro [3]): 536 µL/min/mg; half-life at 100 µM (in vitro [4]): 14.6 min; half-life at 100 µM (in vitro [5]): 2.6 min; CLint scaled at 100 µM (in vitro [6]): 170 mL/min/kg
3 | COc1ccc(-c2nc(-c3ccc(C#N)cc3)cs2)c(OC)c1 |  | 0.2 | 3980 | 490 | > 10000 | IC50 (Cytochrome P450 1A2): > 10000 nM
4 | COc1cc(OC)cc(-c2cccc(-c3cc(OC)cc(OC)c3)c2)c1 | 263 | 38 | > 10000 | 140 |  | IC50 at 120 min (CYP450 (family)): 10000 nM
5 | COc1cc(OC)cc(-c2ccc(-c3cc(OC)cc(OC)c3)cc2)c1 |  | > 10000 | > 10000 |  |  | IC50 at 72 h [8]: 10000 nM
6 | COc1ccc(-c2nc(-c3ccc(F)cc3)cs2)c(OC)c1 | > 1650 | 6 | 3000 | 500 | > 10000 | selectivity ratio (CYP1A2 versus CYP1B1): > 1670; selectivity ratio (CYP3A4 versus CYP1B1): > 1670; IC50 (Cytochrome P450 1A2): > 10000 nM
7 | COc1cc(OC)cc(-c2ccccc2-c2cc(OC)cc(OC)c2)c1 |  | > 10000 | > 10000 |  |  | IC50 at 72 h [8]: 10000 nM
8 | COc1ccc(/C=C/c2ccncc2)c(OC)c1 |  | 0.31 |  |  |  | 
9 | COc1cc(OC)cc(-c2cncc(-c3cc(OC)cc(OC)c3)c2)c1 | > 2000 | 5 | 3000 | 370 |  | 
10 | COc1cc(OC)cc(-c2csc(-c3cc(OC)cc(OC)c3)n2)c1 | > 185 | 54 | 7100 | 370 |  | 
11 | COc1ccc(-c2ccccc2-c2ccc(OC)cc2OC)c(OC)c1 |  | > 10000 | > 10000 |  |  | 
12 | COc1ccc(-c2nc(-c3ccc(O)cc3)cs2)c(OC)c1 |  |  |  |  | 1490 | 
13 | COc1ccc(-c2nc(-c3cccnc3)cs2)c(OC)c1 | 4 |  | 25 | 550 | 1580 | selectivity ratio (CYP1A2 versus CYP1B1): 12.4; selectivity ratio (CYP3A4 versus CYP1B1): 287; IC50 (Cytochrome P450 1A2): 68 nM
14 | COc1ccc(-c2cccc(-c3ccc(OC)cc3OC)c2)c(OC)c1 |  | > 10000 | > 10000 | 250 |  | 
15 | COc1ccc(-c2csc(-c3ccc(OC)cc3OC)n2)c(OC)c1 |  | 1 |  | 340 | > 10000 | 
16 | COc1cc(OC)cc(-c2ccnc(-c3cc(OC)cc(OC)c3)n2)c1 | 200 | 19 | 3000 | 320 |  | 
17 | COc1ccc(-c2csc(-c3ccc(OC)cc3OC)n2)cc1 |  |  | 2900 | 390 | > 10000 | 
18 | COc1ccc(-c2ccc(-c3ccc(OC)cc3OC)cc2)c(OC)c1 |  | > 10000 | > 10000 |  |  | 
19 | COc1cc(OC)cc(-c2ccc(-c3cc(OC)cc(OC)c3)s2)c1 | < 0.4 | > 10000 | > 10000 |  |  | 
20 | COc1cc(OC)cc(-c2cc(-c3cc(OC)cc(OC)c3)ncn2)c1 | 100 | 100 | 3000 | 120 |  | 
